Patent US11806555B2, “Methods for treating hair loss disorders” (THE TRUSTEES OF COLUMBIA UNIVERSITY IN THE CITY OF NEW YORK, priority 2010, dated 2023)

Tested on: alopecia areata in grafted C3H/HeJ mice
Details: placebo 2/5

With N#CCC(C1CCCC1)n1cc(-c2ncnc3[nH]ccc23)cn1 (stereo not shown) [INCB018424] the “mice that developed alopecia” value was 0/5.
